scFv variants of Ab-14 (heavy chain) against a SARS-CoV-2 spike peptide

The target is the same throughout: PDVDLGDISGINAS, from the HR2 region of SARS-CoV-2 spike.

Each scFv is VH, the linker GGGGSGGGGSGGGGS, VL, as in the parent Ab-14, and differs from it in the CDRs of the heavy chain only.
VH: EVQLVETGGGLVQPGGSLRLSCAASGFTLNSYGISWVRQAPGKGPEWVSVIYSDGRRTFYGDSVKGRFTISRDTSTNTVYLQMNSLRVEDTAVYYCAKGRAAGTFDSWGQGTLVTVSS
VL: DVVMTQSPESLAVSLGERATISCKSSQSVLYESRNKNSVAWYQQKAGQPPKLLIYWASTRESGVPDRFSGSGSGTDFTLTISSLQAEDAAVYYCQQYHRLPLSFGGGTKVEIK

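Phage display of a naive human antibody library on the peptide gave the parent. This is the validation round: designs drawn from the data on random variants, tested in the same kind of assay. Group labels follow the data file (Ctrl: baseline library sampled from a position-specific scoring matrix, with some repeated check sequences; Rand: our label for a block that the file lists under HC and that is probably the random mutants of the ten best first-round binders; GP: Gaussian process model; GPLM: also part of the Gaussian process libraries; HC: hill climbing; Gen: genetic algorithm; Gibbs: Gibbs sampling; a sequence that several methods proposed may carry one label only). AlphaSeq pools MATa yeast showing the antibodies with MATalpha yeast showing the peptide. Binding brings cells together so that they mate, and sequencing counts the barcode pairs among the diploids. Scores were corrected for input abundance and mapped to Kd with protein pairs of known affinity run in the same pool. Each pool was mated in six replicate cultures.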

Sequences are complete VH domains. This list holds designs with at most six substitutions. Values are apparent Kd, the geometric mean of the replicates that gave a signal; lower means stronger binding. A pair that was not seen in any replicate is written "no signal"; this usually means weak binding, but a binder can also be missed. Entries are sorted by rising average, undetected variants last.

Variant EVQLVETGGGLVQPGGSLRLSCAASGFELNSYGISWVRQAPGKGPEWVSVIYADGRRTFYGDSVKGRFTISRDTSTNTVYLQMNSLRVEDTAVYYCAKGREAGTFDSWGQGTLVTVSS [GP_Gen] gave 560 pM (6 of 6 replicates). Variant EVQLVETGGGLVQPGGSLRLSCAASGFDLNSYGISWVRQAPGKGPEWVSVIYSDGRRTFYSDSVKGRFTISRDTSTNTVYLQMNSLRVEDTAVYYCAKGRAAGTFDSWGQGTLVTVSS [Ctrl+GPLM_Gen] gave 1.1 nM (12 of 12 replicates). With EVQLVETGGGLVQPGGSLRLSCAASGFDLNSYGISWVRQAPGKGPEWVSVIYSDGRRTFYGDSVKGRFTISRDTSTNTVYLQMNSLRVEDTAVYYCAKGKTAGTFDGWGQGTLVTVSS [GP_Gen] the result was 1.7 nM (6 of 6 replicates). Variant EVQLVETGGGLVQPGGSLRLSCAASGFQLNEYGISWVRQAPGKGPEWVSVIYSDGRRTFYSDSVKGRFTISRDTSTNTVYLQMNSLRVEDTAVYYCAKGTAAGTFDSWGQGTLVTVSS [GP_Gibbs] gave 2.2 nM (6 of 6 replicates). For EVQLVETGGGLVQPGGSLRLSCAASGFTLNDHGISWVRQAPGKGPEWVSVIYSDGRRTFYGDSVKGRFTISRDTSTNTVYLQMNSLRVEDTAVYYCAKGRAAGTFDSWGQGTLVTVSS [Ctrl], the assay gave 2.3 nM (6 of 6 replicates).

With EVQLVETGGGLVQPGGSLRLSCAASGFTLNSYGISWVRQAPGKGPEWVSVIYSDGKRTFYGDSVKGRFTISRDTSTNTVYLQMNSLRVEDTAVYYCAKGRVAGTFDIWGQGTLVTVSS [GPLM_Gibbs] the result was 17 nM (6 of 6 replicates). For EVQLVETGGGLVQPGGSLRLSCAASGFHLNSYGISWVRQAPGKGPEWVSVIYSDGRRTFYSDSVKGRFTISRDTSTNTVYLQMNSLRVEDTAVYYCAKGHAAGTFDSWGQGTLVTVSS [GP_HC], the assay gave 46 nM (6 of 6 replicates). Variant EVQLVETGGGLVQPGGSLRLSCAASSFELNSYGISWVRQAPGKGPEWVSVIYSDGRRTFYIDSVKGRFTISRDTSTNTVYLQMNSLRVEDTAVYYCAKGRTAGTFDSWGQGTLVTVSS [GP_Gibbs] showed 88 nM (2 of 6 replicates). With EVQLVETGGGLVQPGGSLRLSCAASGFTLNSYGISWVRQAPGKGPEWVSVIYADGRRTFYGDSFKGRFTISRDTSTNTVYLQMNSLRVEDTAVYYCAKGYAAGTFDSWGQGTLVTVSS [Ctrl] the result was 88 nM (3 of 6 replicates). For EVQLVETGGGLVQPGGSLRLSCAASGFTLNSYGISWVRQAPGKGPEWVSVIYSDGRRTFYGDSVRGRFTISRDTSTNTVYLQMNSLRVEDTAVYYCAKGRASGTFDSWGQGTLVTVSS [Ctrl], the assay gave 120 nM (1 of 6 replicates).

For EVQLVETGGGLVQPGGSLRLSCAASGFDLNDYGISWVRQAPGKGPEWVSVIYSDGRRTAYGDEVKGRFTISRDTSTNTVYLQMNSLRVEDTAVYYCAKGRAAGTFDSWGQGTLVTVSS [Ctrl], the assay gave 120 nM (4 of 6 replicates). For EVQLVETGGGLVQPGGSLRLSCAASGFTLNSYGISWVRQAPGKGPEWVSVIYSDGRRTFYIDSVKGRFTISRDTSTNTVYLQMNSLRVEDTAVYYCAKGKTAGTFDSWGQGTLVTVSS [GPLM_Gibbs], the assay gave 490 nM (1 of 6 replicates). With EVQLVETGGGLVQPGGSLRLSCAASGFTLNSYGISWVRQAPGKGPEWVSVIYSDGRRTFYGDSVKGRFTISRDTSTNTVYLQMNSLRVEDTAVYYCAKGQAAGTFSSWGQGTLVTVSS [Ctrl] the result was 520 nM (1 of 6 replicates). With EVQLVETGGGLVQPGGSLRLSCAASGFTLNEYGISWVRQAPGKGPEWVSVIYSDGRRTFYTDSVKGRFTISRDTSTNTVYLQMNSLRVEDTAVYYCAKGRFAGTRDSWGQGTLVTVSS [Rand] the result was no signal (0 of 6 replicates). With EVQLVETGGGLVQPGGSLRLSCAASGFTLNSYGISWVRQAPGKGPEWVSVIYSDGRRTFYGPSVKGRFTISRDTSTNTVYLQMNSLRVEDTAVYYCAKTRAEGTFDSWGQGTLVTVSS [Ctrl] the result was no signal (0 of 6 replicates).

For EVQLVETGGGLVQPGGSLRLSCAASGFTLNSYGISWVRQAPGKGPEWVSVMYSDGRRTYYDDSVKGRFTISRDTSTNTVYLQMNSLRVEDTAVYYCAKGQLARTFDSWGQGTLVTVSS [Rand], the assay gave no signal (0 of 6 replicates). With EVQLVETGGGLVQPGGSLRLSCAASGFWLNSYGISWVRQAPGKGPEWVSVIYSDGRRTFYGDSVKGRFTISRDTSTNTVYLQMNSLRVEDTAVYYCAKGRIAGSFDSWGQGTLVTVSS [Ctrl] the result was no signal (0 of 6 replicates). Variant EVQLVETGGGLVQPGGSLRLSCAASGFTLNSYGISWVRQAPGKGPEWVSVIYSDGMRTFYGDSVKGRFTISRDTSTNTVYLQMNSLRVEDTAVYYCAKGKATGTFDSWGQGTLVTVSS [Ctrl] showed no signal (0 of 6 replicates). Variant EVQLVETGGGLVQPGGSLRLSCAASGFTLNDYGISWVRQAPGKGPEWVSVIYSDGRRTLYIDSVKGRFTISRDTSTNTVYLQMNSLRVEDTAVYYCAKGHAAGFFDSWGQGTLVTVSS [Rand] gave no signal (0 of 6 replicates). With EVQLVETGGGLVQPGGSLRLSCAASGFTLNEYGISWVRQAPGKGPEWVSVIYSDGRRTFYGDSWKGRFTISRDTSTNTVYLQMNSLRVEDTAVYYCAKGRAAVTFDQWGQGTLVTVSS [Rand] the result was no signal (0 of 6 replicates).

For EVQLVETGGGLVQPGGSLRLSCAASGFTLNDYGISWVRQAPGKGPEWVSVIYSDGGRTRYGDSVKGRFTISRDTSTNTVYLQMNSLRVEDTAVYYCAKGRAALTFISWGQGTLVTVSS [Rand], the assay gave no signal (0 of 6 replicates). Variant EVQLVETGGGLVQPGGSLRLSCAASGFTLNSYGISWVRQAPGKGPEWVSVIYSDGRRAFYIDSVKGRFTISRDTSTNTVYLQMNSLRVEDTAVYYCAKGRAAGCFDSWGQGTLVTVSS [Ctrl] gave no signal (0 of 6 replicates).

The first 3 variants above that were never detected:

For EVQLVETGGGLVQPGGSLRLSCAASGFTLNEYGISWVRQAPGKGPEWVSVIYSDGRRTFYTDSVKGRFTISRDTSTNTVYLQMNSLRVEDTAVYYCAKGRFAGTRDSWGQGTLVTVSS [Rand], the assay gave no signal (0 of 6 replicates).
For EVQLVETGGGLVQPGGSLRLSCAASGFTLNSYGISWVRQAPGKGPEWVSVIYSDGRRTFYGPSVKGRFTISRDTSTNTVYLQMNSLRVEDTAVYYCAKTRAEGTFDSWGQGTLVTVSS [Ctrl], the assay gave no signal (0 of 6 replicates).
For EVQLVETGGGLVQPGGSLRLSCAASGFTLNSYGISWVRQAPGKGPEWVSVMYSDGRRTYYDDSVKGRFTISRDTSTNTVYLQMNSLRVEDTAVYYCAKGQLARTFDSWGQGTLVTVSS [Rand], the assay gave no signal (0 of 6 replicates).

Values of this round are not directly comparable with the first-round values of the same sequences. Nonspecific signal, from three strains lacking the peptide, appeared in 1% of pairings of all heavy chain designs, centred on 120 nM (5% of these signals below 7.0 nM); values are not corrected for it. Of ten entries with the parent sequence, four were seen in most replicates (averages 2.2 nM to 240 nM), three in one and three in none, so single entries are noisy. Where one sequence has several entries in the source, the replicates are pooled. In the paper, a design with two or fewer of six values counts as a poor binder.

Values reported by Li et al. 2023, doi:10.1038/s41467-023-39022-2 (FLAb copy).